Here are results for 93 molecules from PubChem BioAssay AID624202 (National Center for Advancing Translational Sciences (NCATS), 2012).

This is a selection; strong and weak results do not stand in their true shares. Some structures show a salt or complex split into parts, the way the source records it. Activity calls are given as the source filed them. Calls follow the shape of the dose curve; as a rule, active = well fitted activation curve with a large enough effect; inconclusive = small, poorly fitted or top-dose-only effect; inactive = no such curve, though single readings can be large or run the other way.

The nature of this test: qHTS Assay to Identify Small Molecule Activators of BRCA1 Expression. Also: nearly all actives have a fitted effect of over 80% in size. To be noted: MCF7-BRCA1-FFLuc reporter, luminescence, 48 h, scaled: vehicle 0%, 10 µM genistein 100%; at 46.1 µM (top of the series). A general note: qHTS replaces the single test concentration by a dilution series.
For the molecule `O=[N+]([O-])c1cc([N+](=O)[O-])c(Nc2ccc(Cl)cc2)c([N+](=O)[O-])c1`, the activation was inactive: -64.9%.
Then `COc1ccc(C(c2nnnn2C2CCCC2)N2CCC(n3c(=O)[nH]c4ccccc43)CC2)cc1` (stereo not drawn), with inactive: -35.3%.
Then `CCCOc1ccc(C(=O)NCC2(N(C)C)CCCCC2)cc1OC`, with inactive: -3.51%.
Then `O=C(NCC1(N2CCOCC2)CCCCC1)c1ccccc1Br`, with inactive: 0.0551%.
`Cc1ccc(C(=O)NCC2(N(C)C)CCCCC2)o1`: the activation was inactive: 1.23%.
Take `O=C(OC1CN2CCC1CC2)c1ccc([N+](=O)[O-])cc1` (stereo not drawn): the activation is inactive: 4.12%.
Then `O=C(NCC1(N2CCCCC2)CCCCC1)c1cncc(Br)c1`, with inactive: -8.65%; and `COc1ccc2c(c1O)-c1c(O)c(OC)cc3c1[C@H](C2)[N+](C)(C)CC3.O=[N+]([O-])c1cc([N+](=O)[O-])c([O-])c([N+](=O)[O-])c1[O-]`, with inactive: 9.94%.
In the case of `CN1CCC(Nc2cccc(F)c2)CC1`, the activation is inactive: -16.6%.
On to `CCC(c1nnnn1C(C)(C)C)N1CCC(n2c(=O)[nH]c3ccccc32)CC1` (stereo not drawn), for which the activation is inactive: 19.5%.
For `O=C(NCC1(N2CCOCC2)CCCCC1)c1cc(F)c(F)cc1Cl`, the activation was inactive: -14%.
In the case of `COc1cc(OC)c(C(=O)NCC2(N(C)C)CCCCC2)cc1OC`, the activation was inactive: 9.37%.
The same measure for `CCCCn1nnnc1C(c1ccnc2ccccc12)N1CCC(n2c(=O)[nH]c3ccccc32)CC1` (stereo not drawn): inactive: 0%.
For `CCCCn1nnnc1C(c1ccccc1OC(F)(F)F)N1CCC(n2c(=O)[nH]c3ccccc32)CC1` (stereo not drawn), the activation was inactive: -65.3%.
With `O=[N+]([O-])c1cc([N+](=O)[O-])c(OC2CCCCC2O)c([N+](=O)[O-])c1` (stereo not drawn), the activation was inactive: -20.2%.
On to `CN(C)c1cccc(C(=O)NCC2(N3CCCCC3)CCCCC2)c1`, for which the activation is inactive: -8.61%.
As to `COc1ccc(CN(CCCl)CCCl)cc1Cl`, the activation was inactive: 1.04%.
Turning to `COc1cc(C(=O)NCC2(N3CCCCC3)CCCCC2)ccc1OC(F)F`, the activation is inactive: -28.2%.
As for `O=C(NCC1(N2CCOCC2)CCCCC1)c1cc(=O)[nH]c2ccccc12`, the activation was inactive: -5.11%.
Consider `CCCCn1nnnc1C(c1cccc2ccccc12)N1CCC(n2c(=O)[nH]c3ccccc32)CC1` (stereo not drawn), for which the activation is inactive: -47.5%.
`CN1CCN(CCOC(=O)C(O)(c2ccccc2)c2ccccc2)CC1`: the activation is inactive: -22.4%.
Consider `COc1ccc(NC2CCN(C(=O)OC(C)(C)C)CC2)cc1`, for which the activation was inactive: 15.4%.
With `CC(C)c1ccc(C(=O)NCC2(N3CCOCC3)CCCCC2)cc1`, the activation was inactive: 10%.
For `O=[N+]([O-])c1cc([N+](=O)[O-])c(NCC2CCS(=O)(=O)C2)c([N+](=O)[O-])c1` (stereo not drawn), the activation was inactive: -61.9%.
Take `O=C(NCC1(N2CCCCC2)CCCCC1)c1cccc(C(F)(F)F)c1`: the activation is inactive: -20.7%.
Consider `N#CC1(Nc2ccccc2)CCN(CCc2ccccc2)CC1`, for which the activation was inactive: 0.66%.
Then `O=c1[nH]c2ccccc2n1C1CCN(C(c2ccccc2OC(F)(F)F)c2nnnn2C2CCCC2)CC1` (stereo not drawn), with inactive: -51.3%.
Regarding `CCN1CCC(Nc2ccc(Cl)cc2)CC1`, the activation was inactive: -12.4%.
Then `CSc1ccc(C(=O)NCC2(N3CCOCC3)CCCCC2)cc1`, with inactive: -4.3%; and `CCOc1ccc(C(=O)NCC2(N3CCOCC3)CCCCC2)cc1`, with inactive: -16.5%; and `O=C(NCC1(N2CCCCC2)CCCCC1)c1cccc([N+](=O)[O-])c1`, with inactive: -10.8%.
In the case of `O=C(NCC1(N2CCCCC2)CCCCC1)c1ccc(OC(F)F)cc1`, the activation is inactive: -16%.
As to `CC(C)(C)n1nnnc1C(c1ccccc1OC(F)(F)F)N1CCC(n2c(=O)[nH]c3ccccc32)CC1` (stereo not drawn), the activation is inactive: -65.3%.
The same measure for `COc1cc(C(=O)NCC2(N(C)C)CCCCC2)ccc1OC(F)F`: inactive: 3.81%; for `CCOC(=O)N1CCC(Nc2cccc(C)c2)CC1`: inactive: -7%; for `O=c1[nH]c2ccccc2n1C1CCN(C(c2cccc3ccccc23)c2nnnn2C2CCCC2)CC1` (stereo not drawn): inactive: -48.9%.
Take `O=c1[nH]c2ccccc2n1C1CCN(C(c2ccccc2)c2nnnn2C2CCCCC2)CC1` (stereo not drawn): the activation is inactive: -17.2%.
The same measure for `COc1ccccc1C(=O)NCC1(N2CCOCC2)CCCCC1`: inactive: 8.96%; for `COc1ccc(NC2CCN(CCc3ccccc3)CC2)c(OC)c1`: inactive: -22.7%; for `CCOC(=O)N1CCC(Nc2ccc(F)cc2)CC1`: inactive: -2.04%.
As for `O=C(NCC1(N2CCCCC2)CCCCC1)c1ccc(F)cc1`, the activation was inactive: -16.1%.
`O=P1(N(CCCl)CCCl)SCCCS1`: the activation is inactive: -15.1%.
With `CCCCn1nnnc1C(c1cc2ccccc2o1)N1CCC(n2c(=O)[nH]c3ccccc32)CC1` (stereo not drawn), the activation was inactive: -71.5%.
For the molecule `CCCCOc1ccc(C(=O)NCC2(N3CCOCC3)CCCCC2)cc1`, the activation was inactive: -2.89%.
With `O=C1CCN(Cc2ccccc2)CC1`, the activation is inactive: -15.7%.
Regarding `CC(C)(C)n1nnnc1C(c1ccccc1)N1CCC(n2c(=O)[nH]c3ccccc32)CC1` (stereo not drawn), the activation was inactive: -8.4%.
Then `O=C(NCC1(N2CCOCC2)CCCCC1)c1ccc(Cl)cc1`, with inactive: 4.67%; and `CCOc1ccc(C)cc1CN(CCCl)CCCl`, with inactive: -0.833%.
Consider `O=C1C(O)=C([N+](=O)[O-])C(=O)C(O)=C1[N+](=O)[O-]`, for which the activation was inactive: -17.2%.
As to `COc1ccc(Cl)cc1C(=O)NCC1(N2CCOCC2)CCCCC1`, the activation was inactive: -12.5%.
For `O=C(OC1CN2CCC1CC2)C1c2ccccc2Oc2ccccc21` (stereo not drawn), the activation is inactive: -12.8%.
On to `O=c1[nH]c2ccccc2n1C1CCN(C(c2cc3ccccc3o2)c2nnnn2C2CCCCC2)CC1` (stereo not drawn), for which the activation is inactive: -35.7%.
Consider `N#CC1(Nc2ccccc2)CCN(Cc2ccccc2)CC1`, for which the activation was inactive: 8.34%.
Regarding `O=C(NCC1(N2CCCCC2)CCCCC1)c1ccc(Cl)s1`, the activation is inactive: -13.7%.
The same measure for `CCCCn1nnnc1C(c1ccc(OC)cc1)N1CCC(n2c(=O)[nH]c3ccccc32)CC1` (stereo not drawn): inactive: -29.4%; for `CCOC(=O)N1CCC(Nc2ccc(OC)cc2)CC1`: inactive: 3.29%.
Turning to `Cc1cc(C)cc(N(C(=O)c2ccccc2)C2CCN(C(=O)OC(C)(C)C)CC2)c1`, the activation is inactive: -37.2%.
`O=c1[nH]c2ccccc2n1C1CCN(C(c2ccccc2OC(F)(F)F)c2nnnn2C2CCCCC2)CC1` (stereo not drawn): the activation was inactive: -34%.
Turning to `O=C(NCC1(N2CCCCC2)CCCCC1)c1ccc(Cl)nc1`, the activation was inactive: -5.99%.
As to `O=C(NCC1(N2CCOCC2)CCCCC1)c1cc2ccccc2o1`, the activation was inactive: -7.11%.
`Cc1cccc(NC2(C#N)CCN(Cc3ccccc3)CC2)c1`: the activation was inactive: 1.41%.
Then `CSc1ccccc1C(=O)NCC1(N2CCCCC2)CCCCC1`, with inactive: -8.12%; and `CCC(c1nnnn1C1CCCC1)N1CCC(n2c(=O)[nH]c3ccccc32)CC1` (stereo not drawn), with inactive: -9.11%; and `COc1ccc(C(=O)NCC2(N3CCCCC3)CCCCC2)c(OC)c1OC`, with inactive: -22.5%.
Take `CC(C)(C)OC(=O)N1CCC(N(C(=O)c2ccccc2)c2ccc(F)cc2)CC1`: the activation was inactive: -8.32%.
Consider `COc1ccc(C(=O)NCC2(N3CCCCC3)CCCCC2)cc1`, for which the activation was inactive: -1.5%.
Turning to `CCCCn1nnnc1C(c1cccs1)N1CCC(n2c(=O)[nH]c3ccccc32)CC1` (stereo not drawn), the activation is inactive: -1.07%.
The same measure for `CCCCn1nnnc1C(CC)N1CCC(n2c(=O)[nH]c3ccccc32)CC1` (stereo not drawn): inactive: 3.54%; for `O=C(NCC1(N2CCCCC2)CCCCC1)c1cccs1`: inactive: -23.7%.
Turning to `O=C(NCC1(N2CCCCC2)CCCCC1)c1ccc(=O)[nH]c1`, the activation was inactive: -5.53%.
For the molecule `CN1CCC(Nc2ccc(Cl)cc2)CC1`, the activation was inactive: 11.7%.
The same measure for `COc1cc(C(=O)NCC2(N3CCOCC3)CCCCC2)cc(OC)c1OC`: inactive: -0.368%; for `COc1cccc(C(c2nnnn2C2CCCC2)N2CCC(n3c(=O)[nH]c4ccccc43)CC2)c1OC` (stereo not drawn): inactive: -42.4%; for `COc1cc(OC)cc(C(=O)NCC2(N3CCOCC3)CCCCC2)c1`: inactive: -6.74%.
Then `COc1cccc(C(=O)N(c2cc(C)cc(C)c2)C2CCN(C(=O)OC(C)(C)C)CC2)c1`, with inactive: -31.2%; and `CCC(CO)(C(=O)OC1CN2CCC1CC2)c1ccccc1` (stereo not drawn), with inactive: -22.2%.
As for `O=C(O)C1(Nc2ccccc2)CCN(Cc2ccccc2)CC1`, the activation is inactive: -5.81%.
`ClCCN(CCCl)c1ccc(C=C2C=CC=C2)cc1`: the activation is inactive: 0%.
Then `NN(c1ccccc1)C1CCN(CCc2ccccc2)CC1`, with inactive: -0.881%.
For the molecule `CC(C)(C)OC(=O)N1CCC(Nc2ccccc2)CC1`, the activation is inactive: 0%.
On to `CCCOc1ccc(C(=O)NCC2(N(C)C)CCCCC2)cc1`, for which the activation is inactive: 0.514%.
Then `O=c1[nH]c2ccccc2n1C1CCN(C(c2cc3ccccc3o2)c2nnnn2C2CCCC2)CC1` (stereo not drawn), with inactive: -55.1%; and `ClCCN(CCCl)c1ccccc1`, with inactive: -15.1%.
For the molecule `CN1CCC(Nc2ccc(F)c(Cl)c2)CC1`, the activation was inactive: 4.29%.
Consider `CCOc1ncccc1C(=O)NCC1(N2CCOCC2)CCCCC1`, for which the activation is inactive: -4.75%.
Turning to `Cn1c(=O)[nH]cc(N(CCCl)CCCl)c1=O`, the activation was inactive: -24.3%.
Turning to `CN(C)c1ccc(C(=O)NCC2(N3CCCCC3)CCCCC2)cc1`, the activation is inactive: -2.43%.
For `CC(C)(C)c1ccc(C(=O)NCC2(N3CCOCC3)CCCCC2)cc1`, the activation is inactive: -6.07%.
The same measure for `O=C(NCC1(N2CCCCC2)CCCCC1)c1ccco1`: inactive: -23%.
In the case of `CC(C)(C)n1nnnc1C(c1ccnc2ccccc12)N1CCC(n2c(=O)[nH]c3ccccc32)CC1` (stereo not drawn), the activation is inactive: -26.6%.
Take `COc1ccc(C(c2nnnn2C2CCCCC2)N2CCC(n3c(=O)[nH]c4ccccc43)CC2)cc1` (stereo not drawn): the activation was inactive: -59.8%.
As for `CCN1CCC(Nc2cccc(F)c2)CC1`, the activation is inactive: -18.8%.
Then `Cc1ccccc1NC1(C#N)CCN(Cc2ccccc2)CC1`, with inactive: 0.884%.
